From patent US20140065611A1, “MODIFICATION OF NEURO[…] OF MERCURY BY A GENETIC PO[…] COPROPOR[…] IN CHILDREN” (University of Washington through its Center for …, priority 2012, published 2014)
Read-outs that look alike come from different tables or passages of the source. Marks after values point to notes of the source that are not given here.

What was measured:
children [1] = settings: boys
children [2] = settings: for Beta (SE), Hg^0 dose-response, Stroop Test - Word/Color / rpart, Hg^0 dose-response, Stroop Test - Word/Color / Beta (SE), main effect Hg (ln), Stroop Test - Word/Color / rpart, main effect Hg (ln), Stroop Test - Word/Color: boys; for Beta (SE), Hg^0 dose-response, Stroop Test - Word/Color / rpart, Hg^0 dose-response, Stroop Test - Word/Color: acute Hg^0 (HgU Year 2)
children [3] = settings: boys; remark: listed apart in the source
children [4] = settings: boys; remark: listed apart in the source
children [5] = settings: boys; remark: listed apart in the source
children [6] = settings: for Beta (SE), Hg^0 dose-response, Adult Trails A - Time (Sec) / rpart, Hg^0 dose-response, Adult Trails A - Time (Sec): boys
children [7] = settings: boys; remark: listed apart in the source
children [8] = settings: boys; remark: listed apart in the source
children [9] = settings: boys, Year 7, maximum Hg^0
children [10] = settings: boys, CPOX4 Het or Mut, Year 7, maximum Hg^0
[11] = CPOX4 Het or Mut, Year 7, cumulative Hg^0
[12] = CPOX4 Het or Mut, Year 7, maximum Hg^0
[13] = CPOX4 Het or Mut, acute Hg^0 (HgU Year 2)
[14] = CPOX WT, Year 7, cumulative Hg^0
[15] = CPOX WT, acute Hg^0 (HgU Year 2)

With elemental mercury [Hg^0] the “Beta (SE), Hg^0 dose-response, Stroop Test - Color” value (shortened to “Beta (SE) … - Color”) (children [1]; [11]) was −12.55 (4.05)*, the “rpart, Hg^0 dose-response, Stroop Test - Color” value (shortened to “rpart … - Color”) (children [1]; [11]) was “−.47 (.004)*” and the “Beta (SE) … - Color” value (children [1]; [12]) was −11.17 (3.80). For the same substance, the “rpart … - Color” value (children [1]; [12]) was “−.45 (.006)”, the “Beta (SE) … - Color” value (children [1]; [13]) was −8.40 (2.80)* and the “rpart … - Color” value (children [1]; [13]) was “−.42 (.005)*”. The “Beta (SE) … - Color” value (children [1]; [14]) was −1.14 (2.32), the “rpart … - Color” value (children [1]; [14]) was “−.06 (.63)” and the “Beta (SE) … - Color” value (children [1]; CPOX WT, Year 7, maximum Hg^0) was “.73 (2.24)”. For the same substance, the “rpart … - Color” value (children [1]; CPOX WT, Year 7, maximum Hg^0) was “.04 (.74)”, the “Beta (SE) … - Color” value (children [1]; [15]) was “−.19 (1.80)” and the “rpart … - Color” value (children [1]; [15]) was “−.01 (.92)”. For the same substance, the “Beta (SE), Hg^0 dose-response, Stroop Test - Word/Color” value (children [2]; CPOX4 Het or Mut) was −3.50 (1.68)*, the “rpart, Hg^0 dose-response, Stroop Test - Word/Color” value (children [2]; CPOX4 Het or Mut) was “−.31 (.04)*” and the “Beta (SE), Hg^0 dose-response, Stroop Test - Word/Color” value (children [2]; CPOX WT) was 1.09 (1.51). For the same substance, the “rpart, Hg^0 dose-response, Stroop Test - Word/Color” value (children [2]; CPOX WT) was “.07 (.47)”, the “Beta (SE), main effect Hg (ln), Stroop Test - Word/Color” value (children [2]; Year 7, cumulative Hg) was −3.30 (1.64)* and the “rpart, main effect Hg (ln), Stroop Test - Word/Color” value (children [2]; Year 7, cumulative Hg) was “−.18 (.05)*”. For the same substance, the “Beta (SE), main effect Hg (ln), Stroop Test - Word/Color” value (children [2]; Year 7, maximum Hg) was −2.17 (.59), the “rpart, main effect Hg (ln), Stroop Test - Word/Color” value (children [2]; Year 7, maximum Hg) was “−.13 (.16)” and the “direction of significant main effect of acute Hg^0 exposure, Stroop Color/Word test” value (children [2]; girls, Year 2, p≦0.03) was “improved direction”. The “Beta (SE), Hg^0 dose-response, Stroop Test - Word” value (children [3]; [11]) was −18.06 (4.89)*, the “rpart, Hg^0 dose-response, Stroop Test - Word” value (children [3]; [11]) was “−.54 (.001)*” and the “Beta (SE), Hg^0 dose-response, Stroop Test - Word” value (children [3]; [12]) was −17.10 (4.51). For the same substance, the “rpart, Hg^0 dose-response, Stroop Test - Word” value (children [3]; [12]) was “−.54 (.001)”, the “Beta (SE), Hg^0 dose-response, Stroop Test - Word” value (children [3]; [14]) was −2.90 (3.20) and the “rpart, Hg^0 dose-response, Stroop Test - Word” value (children [3]; [14]) was “−.10 (.37)”. For the same substance, the “Beta (SE), Hg^0 dose-response, Stroop Test - Word” value (children [3]; CPOX WT, Year 7, maximum Hg^0) was “−.77 (3.10)”, the “rpart, Hg^0 dose-response, Stroop Test - Word” value (children [3]; CPOX WT, Year 7, maximum Hg^0) was “−.03 (.80)” and the “Beta (SE), Hg^0 dose-response, WAIS-III - Digit Span” value (shortened to “Beta (SE) … - Digit Span”) (children [4]; [11]) was −3.57 (1.12)*. The “rpart, Hg^0 dose-response, WAIS-III - Digit Span” value (“rpart … - Digit Span” for short) (children [4]; [11]) was “−.48 (.003)*”, the “Beta (SE) … - Digit Span” value (children [4]; [12]) was −3.90 (.98) and the “rpart … - Digit Span” value (children [4]; [12]) was “−.57 (.0001)”. The “Beta (SE) … - Digit Span” value (children [4]; [14]) was “.11 (.77)”, the “rpart … - Digit Span” value (children [4]; [14]) was “.02 (.88)” and the “Beta (SE) … - Digit Span” value (children [4]; CPOX WT, Year 7, maximum Hg^0) was “.87 (.74)”. For the same substance, the “rpart … - Digit Span” value (children [4]; CPOX WT, Year 7, maximum Hg^0) was “.13 (.24)”, the “Beta (SE), Hg^0 dose-response, WMS-III - Spatial Span” value (“Beta (SE) … - Spatial Span” below) (children [5]; [11]) was −2.45 (.97)* and the “rpart, Hg^0 dose-response, WMS-III - Spatial Span” value (“rpart, Hg^0 dose-response, WMS-III” below) (children [5]; [11]) was “−.40 (.02)*”. For the same substance, the “Beta (SE) … - Spatial Span” value (children [5]; [12]) was −2.89 (.85), the “rpart, Hg^0 dose-response, WMS-III” value (children [5]; [12]) was “−.50 (.002)” and the “Beta (SE) … - Spatial Span” value (children [5]; [14]) was “.17 (.62)”. The “rpart, Hg^0 dose-response, WMS-III” value (children [5]; [14]) was “.03 (.79)”, the “Beta (SE) … - Spatial Span” value (children [5]; CPOX WT, Year 7, maximum Hg^0) was “.57 (.60)” and the “rpart, Hg^0 dose-response, WMS-III” value (children [5]; CPOX WT, Year 7, maximum Hg^0) was “.11 (.35)”. The “Beta (SE), Hg^0 dose-response, Adult Trails A - Time (Sec)” value (“Beta (SE), Hg^0 dose-response … (Sec)” below) (children [6]; [11]) was 11.25 (3.83)*, the “rpart, Hg^0 dose-response, Adult Trails A - Time (Sec)” value (“rpart, Hg^0 dose-response … (Sec)” for short) (children [6]; [11]) was “.45 (.006)*” and the “Beta (SE), Hg^0 dose-response … (Sec)” value (children [6]; [12]) was 13.04 (3.30). For the same substance, the “rpart, Hg^0 dose-response … (Sec)” value (children [6]; [12]) was “.56 (.0001)”, the “Beta (SE), Hg^0 dose-response … (Sec)” value (children [6]; [14]) was “−.80 (2.07)” and the “rpart, Hg^0 dose-response … (Sec)” value (children [6]; [14]) was “−.04 (.70)”. For the same substance, the “Beta (SE), Hg^0 dose-response … (Sec)” value (children [6]; CPOX WT, Year 7, maximum Hg^0) was −2.37 (1.98), the “rpart, Hg^0 dose-response … (Sec)” value (children [6]; CPOX WT, Year 7, maximum Hg^0) was “−.14 (.24)” and the “direction of significant main effect of acute Hg^0 exposure, Trails A test” value (children [6]; girls, Year 2, p≦0.03) was “impaired direction”. For the same substance, the “Beta (SE), Hg^0 dose-response, SRT Mean” value (children [7]; [11]) was “.15 (.05)*”, the “rpart, Hg^0 dose-response, SRT Mean” value (children [7]; [11]) was “.44 (.007)*” and the “Beta (SE), Hg^0 dose-response, SRT Mean” value (children [7]; [12]) was “.14 (.05)*”. The “rpart, Hg^0 dose-response, SRT Mean” value (children [7]; [12]) was “.46 (.005)*”, the “Beta (SE), Hg^0 dose-response, SRT Mean” value (children [7]; [14]) was “.00 (.03)” and the “rpart, Hg^0 dose-response, SRT Mean” value (children [7]; [14]) was “.01 (.96)”. The “Beta (SE), Hg^0 dose-response, SRT Mean” value (children [7]; CPOX WT, Year 7, maximum Hg^0) was “.01 (.03)”, the “rpart, Hg^0 dose-response, SRT Mean” value (children [7]; CPOX WT, Year 7, maximum Hg^0) was “.02 (.86)” and the “Beta (SE), Hg^0 dose-response, WAIS-III - Digit Symbol” value (from here on “Beta (SE) … - Digit Symbol”) (children [8]; [11]) was −20.70 (6.08)*. The “rpart, Hg^0 dose-response, WAIS-III - Digit Symbol” value (from here on “rpart … - Digit Symbol”) (children [8]; [11]) was “−.50 (.002)*”, the “Beta (SE) … - Digit Symbol” value (children [8]; [12]) was −18.17 (5.75)* and the “rpart … - Digit Symbol” value (children [8]; [12]) was “−.48 (.003)*”. The “Beta (SE) … - Digit Symbol” value (children [8]; [14]) was −2.46 (3.33), the “rpart … - Digit Symbol” value (children [8]; [14]) was “−.08 (.46)” and the “Beta (SE) … - Digit Symbol” value (children [8]; CPOX WT, Year 7, maximum Hg^0) was “−.32 (3.32)”. The “rpart … - Digit Symbol” value (children [8]; CPOX WT, Year 7, maximum Hg^0) was “−.01 (.92)”, the “Beta (SE), Hg^0 dose-response, Adult Trails B” value (children [9]; CPOX4 Het or Mut) was 22.26 (7.03)* and the “rpart, Hg^0 dose-response, Adult Trails B” value (children [9]; CPOX4 Het or Mut) was “.48 (.003)*”. The “Beta (SE), Hg^0 dose-response, Adult Trails B” value (children [9]; CPOX WT) was 1.98 (6.08), the “rpart, Hg^0 dose-response, Adult Trails B” value (children [9]; CPOX WT) was “.04 (.75)” and the “Beta (SE), Hg^0 dose-response, RAVALT TR5 - List A” value (children [10]) was −1.78 (.80)*.
